Experimental data as given in US20240181039A1, “INFLUENZA VACCINE FOR INTRANASAL ADMINISTRATION” (priority 2021, published 2024).

System: M-like cells (Caco-2+Raji B)
Experiment: Transcytosis with TGDK not linked (free TGDK), M-like cells
Type: cell-based
Details: 22.9 μg HA whole inactivated vaccine, free TGDK 1.1 or 11.1 μM; qPCR after 1 hour

## NCCNC(=O)[C@H](CCCCNC(=O)[C@H](CCCCNC(=O)c1cc(O)c(O)c(O)c1)NC(=O)c1cc(O)c(O)c(O)c1)NC(=O)[C@H](CCCCNC(=O)c1cc(O)c(O)c(O)c1)NC(=O)c1cc(O)c(O)c(O)c1 [TGDK, N2, N6-bis [N2, N6-bis (3,4,5-trihydroxybenzoyl)-lysyl]-N-(2-aminoethyl)-lysine amide]
  transfer of the vaccine antigen to the upper chamber: inhibited
